{"source": "patent US10849867B2", "about": "“Methods and compositions for treating conditions associated with an abnormal inflammatory response” (First Wave Bio, Inc., priority 2015, dated 2020)", "test": "Pharmacokinetics following a single rectal administration to NZW rabbits (Example 11)", "assay_type": "in vivo, New Zealand White KBL Rabbit", "from_the_text": "Following dosing, blood samples and rectal mucosa was obtained at indicated time points.", "key": {"[1]": {"conditions": "0 h, single rectal administration, Treatment B 7.5, NZW rabbits"}, "[2]": {"conditions": "24 h, single rectal administration, Treatment B 7.5, NZW rabbits"}}, "data": [{"smiles": "O=C(Nc1ccc([N+](=O)[O-])cc1Cl)c1cc(Cl)ccc1O", "note": "[Niclosamide, 5-chloro-N-(2-chloro-4-nitrophenyl)-2-hydroxybenzamide]", "values": [{"measurement": "Niclosamide Plasma Concentrations, Subject 666", "setting": "[1]", "result": "BLQ"}, {"measurement": "Niclosamide Plasma Concentrations, Subject 667", "setting": "[1]", "result": "BLQ"}, {"measurement": "Niclosamide Plasma Concentrations, Subject 668", "setting": "[1]", "result": "BLQ"}, {"measurement": "Niclosamide Plasma Concentrations, Subject 669", "setting": "[1]", "result": "BLQ"}, {"measurement": "Niclosamide Plasma Concentrations, Subject 670", "setting": "[1]", "result": "BLQ"}, {"measurement": "Niclosamide Plasma Concentrations, Subject 670", "setting": "1 h, single rectal administration, Treatment B 7.5, NZW rabbits", "result": "BLQ"}, {"measurement": "Niclosamide Plasma Concentrations, Subject 666", "setting": "4 h, single rectal administration, Treatment B 7.5, NZW rabbits", "result": "BLQ"}, {"measurement": "Niclosamide Plasma Concentrations, Subject 668", "setting": "8 h, single rectal administration, Treatment B 7.5, NZW rabbits", "result": "BLQ"}, {"measurement": "Niclosamide Plasma Concentrations, Subject 666", "setting": "[2]", "result": "BLQ"}, {"measurement": "Niclosamide Plasma Concentrations, Subject 668", "setting": "[2]", "result": "BLQ"}, {"measurement": "concentration at 1 h", "setting": "male, New Zealand White KBL, rabbit, plasma, other: rectal, 7.5 mg, Niclosamide Plasma Concentrations, Mean, 1 h, single rectal administration, Treatment B 7.5, NZW rabbits", "result": 3.93, "unit": "ng/mL"}, {"measurement": "concentration at 1 h", "setting": "male, New Zealand White KBL, rabbit, plasma, other: rectal, 7.5 mg, Niclosamide Plasma Concentrations, Subject 666, 1 h, single rectal administration, Treatment B 7.5, NZW rabbits", "result": 5.79, "unit": "ng/mL"}, {"measurement": "concentration at 1 h", "setting": "male, New Zealand White KBL, rabbit, plasma, other: rectal, 7.5 mg, Niclosamide Plasma Concentrations, Subject 667, 1 h, single rectal administration, Treatment B 7.5, NZW rabbits", "result": 2.98, "unit": "ng/mL"}, {"measurement": "concentration at 4 h", "setting": "male, New Zealand White KBL, rabbit, plasma, other: rectal, 7.5 mg, Niclosamide Plasma Concentrations, Subject 667, 4 h, single rectal administration, Treatment B 7.5, NZW rabbits", "result": 21.7, "unit": "ng/mL"}, {"measurement": "concentration at 1 h", "setting": "male, New Zealand White KBL, rabbit, plasma, other: rectal, 7.5 mg, Niclosamide Plasma Concentrations, Subject 668, 1 h, single rectal administration, Treatment B 7.5, NZW rabbits", "result": 2.81, "unit": "ng/mL"}, {"measurement": "concentration at 1 h", "setting": "male, New Zealand White KBL, rabbit, plasma, other: rectal, 7.5 mg, Niclosamide Plasma Concentrations, Subject 669, 1 h, single rectal administration, Treatment B 7.5, NZW rabbits", "result": 4.13, "unit": "ng/mL"}, {"measurement": "concentration at 1 h", "setting": "male, New Zealand White KBL, rabbit, rectal mucosa, other: rectal, 7.5 mg, Niclosamide Rectal Concentration, Mean, rectal mucosa after 1 hour, single rectal administration (7.5 mg), rabbits", "result": 22.6, "unit": "ng/mL"}, {"measurement": "concentration at 1 h", "setting": "male, New Zealand White KBL, rabbit, rectal mucosa, other: rectal, 7.5 mg, Niclosamide Rectal Concentration, Subject 669, rectal mucosa after 1 hour, single rectal administration, rabbits", "result": 12.3, "unit": "ng/mL"}, {"measurement": "concentration at 1 h", "setting": "male, New Zealand White KBL, rabbit, rectal mucosa, other: rectal, 7.5 mg, Niclosamide Rectal Concentration, Subject 670, rectal mucosa after 1 hour, single rectal administration, rabbits", "result": 32.8, "unit": "ng/mL"}]}]}
